From PubChem BioAssay AID2097 (Broad Institute, 2009)
The entries are a selection whose mix differs from that of the whole data set. Some structures show a salt or complex split into parts, the way the source records it. Calls of active or inactive are those of the source.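 Rule for the calls: active = more than half of replicate wells score below -50%, meaning over 50% inhibition versus plate controls; inconclusive = some replicates but at most half score below -50%; inactive = no replicate scores below -50%.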

Protein sequences, listed by entry. Tags and fused reporters are not part of them.
UniProt P49841, whole entry: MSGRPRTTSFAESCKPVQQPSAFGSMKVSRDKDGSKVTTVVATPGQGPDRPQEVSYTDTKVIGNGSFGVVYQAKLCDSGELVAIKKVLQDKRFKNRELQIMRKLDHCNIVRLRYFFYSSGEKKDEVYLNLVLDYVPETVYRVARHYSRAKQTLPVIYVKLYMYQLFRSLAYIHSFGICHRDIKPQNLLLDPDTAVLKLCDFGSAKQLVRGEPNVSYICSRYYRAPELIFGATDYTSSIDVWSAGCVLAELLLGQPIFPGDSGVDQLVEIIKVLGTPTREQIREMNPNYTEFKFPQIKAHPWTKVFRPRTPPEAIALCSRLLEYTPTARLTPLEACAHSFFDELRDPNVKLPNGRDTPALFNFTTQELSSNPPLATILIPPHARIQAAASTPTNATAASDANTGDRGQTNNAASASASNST

molecular target: Glycogen synthase kinase-3 beta (Homo sapiens) (UniProt P49841); experiment: blockers of GSK3B enzyme activity – biochemical, cell-free homogeneous, HTS, primary screen (AID 2097); conditions: GST-GSK3beta kinase, ADP-Glo luminescence, 60 min; at 10 µM; hits give low values;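 note: 0% = median DMSO wells and -100% = median GW8510 positive control wells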

Row | SMILES | activity score (negative = inhibition)
1 | Cc1c(NP(C)(=O)Oc2ccc(C(C)C)cc2)c(=O)n(-c2ccccc2)n1C (stereo not given) | inactive: 0.762%
2 | O=[N+]([O-])c1cc([N+](=O)[O-])c(Nc2ccccn2)c([N+](=O)[O-])c1 | inactive: 0.803%
3 | CCc1ccc(OP(C)(=O)O)cc1 | inactive: -2.73%
4 | CP(=O)(Nc1ccccn1)Oc1ccccc1 (stereo not given) | inactive: 1.91%
5 | COc1ccccc1OP(C)(=O)Nc1ccc(C)cc1C (stereo not given) | inactive: 2.75%
6 | COc1ccccc1OP(C)(=O)Nc1ccc(Br)cc1 (stereo not given) | inactive: -1.79%
7 | CN(C)CCOC(=O)C(O)(c1ccccc1)C1CCCC1 (stereo not given) | inactive: 0.769%
8 | COc1ccc(OP(C)(=O)Nc2ccccn2)cc1 (stereo not given) | inactive: -25.7%
9 | Cc1nc2ccc3ccccc3c2o1.O=[N+]([O-])c1cc([N+](=O)[O-])c(O)c([N+](=O)[O-])c1 | inactive: -2.93%
10 | CP(=O)(Nc1ccc(Cl)cc1Cl)Oc1ccccc1 (stereo not given) | inactive: -4.31%
11 | CP(=O)(OCCOc1ccccc1)OCCOc1ccccc1 | inactive: 0.21%
12 | Cc1cc(C)cc(OP(C)(=O)Nc2cccc(C(F)(F)F)c2)c1 (stereo not given) | inactive: -4.03%
13 | COc1ccc(OP(C)(=O)Nc2ccccc2Br)cc1 (stereo not given) | inactive: 2.87%
14 | COc1ccccc1OP(C)(=O)Nc1ccc(C)c(C)c1 (stereo not given) | inactive: 0.297%
15 | Nc1ccc2c(ccc3cccnc32)n1.O=[N+]([O-])c1cc([N+](=O)[O-])c(O)c([N+](=O)[O-])c1 | inactive: 1.52%
16 | CP(=O)(OC12CC3CC(CC(C3)C1)C2)OC12CC3CC(CC(C3)C1)C2 | inactive: -3.77%
17 | CCOC(=O)c1ccc(NP(C)(=O)Oc2ccc(Cl)cc2)cc1 (stereo not given) | inactive: 0.659%
18 | CP(=O)(Nc1ccc(Cl)cc1)Oc1ccc(F)cc1 (stereo not given) | inactive: 5.33%
19 | COc1ccccc1OP(C)(=O)Nc1ccccc1Br (stereo not given) | inactive: 3.62%
20 | CC(C)(C)c1ccc(OP(C)(=O)O)cc1 | inactive: -1.39%

Row | SMILES | activity score (negative = inhibition)
21 | CN(C)C(=O)c1c([N+](=O)[O-])cc([N+](=O)[O-])cc1[N+](=O)[O-] | inactive: 4.38%
22 | CCN(CC)CC(O)COC(=O)C(O)(c1ccccc1)C1CCCCC1 (stereo not given) | inactive: 5.2%
23 | COc1ccc(OP(C)(=O)Nc2ccc(Br)cc2)cc1 (stereo not given) | inactive: 3.51%
24 | CP(=O)(Oc1ccccc1)N1CCOC1=O (stereo not given) | inactive: 1.62%
25 | CCc1ccc(OP(C)(=O)Nc2cccnc2)cc1 (stereo not given) | inactive: 2.32%
26 | COc1ccccc1OP(C)(=O)Nc1c(C)n(C)n(-c2ccccc2)c1=O (stereo not given) | inactive: 2.94%
27 | O=C(OCCCN1CCCC1)C(O)(c1ccccc1)C1CCCCC1 (stereo not given) | inactive: -0.752%
28 | CP(=O)(Nc1ccc2c(c1)OCCO2)Oc1ccccc1 (stereo not given) | inactive: -0.9%
29 | Cc1ccccc1NP(C)(=O)Nc1ccccc1C | inactive: 2.45%
30 | CP(=O)(Nc1ccc(SC(F)(F)F)cc1)Oc1ccc(F)cc1 (stereo not given) | inactive: -0.884%
31 | CCOP(C)(=S)SCC(=O)NC(C)(CC)C(=O)O (stereo not given) | inactive: -2.18%
32 | O=[N+]([O-])c1cc([N+](=O)[O-])c(NCC2CCS(=O)(=O)C2)c([N+](=O)[O-])c1 (stereo not given) | inactive: -2.59%
33 | Cc1cc(-c2cccc3ccccc23)c(C)cn1.O=[N+]([O-])c1cc([N+](=O)[O-])c(O)c([N+](=O)[O-])c1 | inactive: 0.33%
34 | O=[N+]([O-])c1ccc(OP2(=O)COCCO2)cc1 (stereo not given) | inactive: -4.09%
35 | COc1ccc(OP(C)(=O)Nc2cccc(Br)c2)cc1 (stereo not given) | inactive: -1.39%
36 | COc1ccc(NP(C)(=O)Oc2ccccc2OC)cc1 (stereo not given) | inactive: 1.72%
37 | CN(C)CCOC(=O)C(O)(c1ccccc1)C1CCCCC1 (stereo not given) | inactive: 1.54%
38 | CCN(CC)CCCOC(=O)C(O)(c1ccccc1)C1CCCCC1 (stereo not given) | inactive: 1.15%
39 | CCCCCOc1ccc(NP(C)(=O)Oc2ccc(Cl)cc2Cl)cc1 (stereo not given) | inactive: -3.26%
40 | O=[N+]([O-])c1cc([N+](=O)[O-])c(OC2CCCCC2O)c([N+](=O)[O-])c1 (stereo not given) | inactive: 3.33%

Row | SMILES | activity score (negative = inhibition)
41 | CP(=O)(Nc1ccccc1)Oc1ccc(F)cc1 (stereo not given) | inactive: 1.58%
42 | COc1ccc(OP(C)(=O)Nc2ccc(SC(F)(F)F)cc2)cc1 (stereo not given) | inactive: 1.64%
43 | CCOC(=O)c1ccc(NP(C)(=O)Oc2ccc(F)cc2)cc1 (stereo not given) | inactive: 1.89%
44 | O=C(OCCN1CCN(CCOCc2ccccc2)CC1)C(O)(c1ccccc1)c1ccccc1 | inactive: -0.974%
45 | O=C(OC1CN2CCC1CC2)c1ccc([N+](=O)[O-])cc1 (stereo not given) | inactive: -2.13%
46 | COc1ccc2c(c1O)-c1c(O)c(OC)cc3c1[C@H](C2)[N+](C)(C)CC3.O=[N+]([O-])c1cc([N+](=O)[O-])c([O-])c([N+](=O)[O-])c1[O-] | inactive: 0.166%
47 | CC(C)c1ccc(OP(C)(=O)Nc2ccc(SC(F)(F)F)cc2)cc1 (stereo not given) | inactive: -6.89%
48 | CP(=O)(Nc1ccccc1F)Oc1ccccc1 (stereo not given) | inactive: 4.33%
49 | Cc1cc(C)cc(OP(C)(=O)Nc2ccccn2)c1 (stereo not given) | inactive: -0.929%
50 | CP(=O)(Nc1cccc(Br)c1)Oc1ccccc1 (stereo not given) | inactive: -1.81%
51 | Cc1ccc(C)c(NP(C)(=O)Oc2ccccc2)c1 (stereo not given) | inactive: -0.341%
52 | COc1ccccc1OP(C)(=O)Nc1cccc(Br)c1 (stereo not given) | inactive: -2.32%
53 | Cc1cc(C)cc(OP(C)(=O)Nc2ccc(C)cc2C)c1 (stereo not given) | inactive: 3.45%
54 | CCOC(=O)c1ccc(NP(C)(=O)Oc2cc(C)cc(C)c2)cc1 (stereo not given) | inactive: 3.27%
55 | CC1=NCCc2c1[nH]c1ccccc21.O=[N+]([O-])c1cc([N+](=O)[O-])c(O)c([N+](=O)[O-])c1 | inactive: -0.157%
56 | O=C(O)c1cccc(Nc2c([N+](=O)[O-])cc([N+](=O)[O-])cc2[N+](=O)[O-])c1 | inactive: 3.54%
57 | CN1CCCCC1COC(=O)C1(O)c2ccccc2CCc2ccccc21 (stereo not given) | inactive: 3.26%
58 | COc1ccccc1OP(C)(=O)Nc1c(C)cccc1C (stereo not given) | inactive: 2.35%
59 | CCCOc1ccc(NP(C)(=O)Oc2ccc(Cl)cc2)cc1 (stereo not given) | inactive: -1.71%
60 | CP(=O)(Nc1ccc(SC(F)(F)F)cc1)Oc1ccccc1 (stereo not given) | inactive: 2.24%
